In US20130136721A1, “Compositions and Methods of Generating a Differentiated Mesodermal Cell” (THE JOHNS HOPKINS UNIVERSITY, priority 2010, published 2013):

Test system: H9 hESC
Assay: Beating hEB assay (contracting hEB after forced aggregation cardiac differentiation)
Type: cell-based, human
Details: supplement in d0-d2 medium; contracting hEB d9
Text: The cardiac differentiation protocol was divided into four distinct phases for optimization (FIG. 3A): phase 1: uniform undifferentiated growth; phase 2: hEB formation/mesoderm induction; phase 3: hEB cardiac specification; phase 4: contracting cardiomyocyte development. A simple beating hEB assay was used to sequentially assess improvements in cardiac differentiation in each of these four phases by counting the number of hEB contracting after nine days of differentiation, a time point that was identified as the day of maximum percentage contraction in the enhanced ‘prototype’ version of the protocol (FIG. 1B). […] For each variable tested, the bell-curve distribution of dose-response was determined. […]
For forced aggregation hEB differentiations, confluent hESC or hiPSC which had been grown on a commercially available extracellular matrix, Geltrex (Invitrogen) as monolayers for 3 to 13 passages were passaged with TrypLE Select and seeded at 2.5×10^6 per T25 flask. […] Media was changed on d7 and every 3 days afterwards. hEB were visually assessed for contraction on d9 using a Nikon Eclipse Ti inverted tissue culture microscope with a TOKAI-HIT heated stage (Nikon). […]
One single replicate consists of one 96-well plate. […] Total number of hEB assessed in this work exceeds 80,000. […]

B1: BMP2: growth factor titrated between 1-100 ng mL-1 (protein, UniProt P12643 283-396, looked up)
Bone morphogenetic protein 2: QAKHKQRKRLKSSCKRHPLYVDFSDVGWNDWIVAPPGYHAFYCHGECPFPLADHLNSTNHAIVQTLVNSVNSKIPKACCVPTELSAISMLYLDENEKVVLKNYQDMVVEGCGCR
With B1 the “effect on cardiac differentiation, phase 2 medium” value was “none were found to have the same potency as BMP4”.
